Test results from patent publication US20260325465A1, “SHP-1 INHIBITORS FOR TREATING CANCER” (MDX MANAGEMENT LLC, priority 2022, published 2026).

Tested on: PTP/SHP-1 activity in KPC tumor
Test: PTP/SHP-1 activity in KPC tumor in vivo
Design: species or system murine
Details: therapeutic treatment of KPC tumor
Source text: FIGS. 7A-7F depict that the inhibition of SHP-1 unleashes proinflammatory response and antigen presentation in solid tumor upon therapies. […] Low PTP/SHP-1 activity was found in untreated, homeostatic tumor. […] Similar data were obtained by studying colorectal carcinoma MC38.

With `Cn1cnc([N+](=O)[O-])c1Sc1ncnc2nc[nH]c12` [Azathioprine (AZA), Azathioprine] the “PTP/SHP-1 activity induced in tumor” value was “induced”.
